Amino acid sequences for entries named in this document (tags omitted).
UniProt P35372, whole entry: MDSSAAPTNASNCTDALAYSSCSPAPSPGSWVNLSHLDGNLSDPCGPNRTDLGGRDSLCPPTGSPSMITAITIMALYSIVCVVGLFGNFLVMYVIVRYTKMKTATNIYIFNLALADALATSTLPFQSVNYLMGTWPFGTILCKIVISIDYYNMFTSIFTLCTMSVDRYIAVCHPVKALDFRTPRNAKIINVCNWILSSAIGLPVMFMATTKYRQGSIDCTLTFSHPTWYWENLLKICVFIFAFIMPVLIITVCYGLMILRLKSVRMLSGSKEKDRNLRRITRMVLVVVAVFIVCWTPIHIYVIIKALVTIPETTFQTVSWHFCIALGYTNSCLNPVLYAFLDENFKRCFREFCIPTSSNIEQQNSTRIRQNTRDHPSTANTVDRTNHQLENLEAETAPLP
UniProt P41145, whole entry: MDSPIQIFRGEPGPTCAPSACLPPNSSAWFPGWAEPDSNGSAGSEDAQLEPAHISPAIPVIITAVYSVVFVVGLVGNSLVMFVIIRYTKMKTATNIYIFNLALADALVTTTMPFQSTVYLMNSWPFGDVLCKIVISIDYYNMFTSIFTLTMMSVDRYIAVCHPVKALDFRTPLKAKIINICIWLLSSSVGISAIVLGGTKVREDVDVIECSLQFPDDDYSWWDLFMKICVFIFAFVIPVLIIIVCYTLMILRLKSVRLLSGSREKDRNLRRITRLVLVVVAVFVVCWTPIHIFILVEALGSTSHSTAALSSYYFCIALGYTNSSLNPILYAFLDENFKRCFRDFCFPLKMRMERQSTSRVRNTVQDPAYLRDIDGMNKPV

In patent US9963460B1, “Morphinan derivative” (dated 2018):

Columns and labels:
μ opioid receptor = μ opioid receptor (Homo sapiens (Human), UniProt P35372); assay: Opioid receptor binding test, [3H] DAMGO; conditions: ratio of Ki values μ/κ
Description: (§1) Preparation of Cell Membrane Fraction Samples
(§2) Cell membrane fraction samples were prepared from Chinese Hamster Ovary cells (CHO cells) in which each opioid receptor type was stably expressed, respectively. Sufficient opioid receptor-stably expressed CHO cells secured by subculture were separated out by a trypsin treatment, and then formed into cell sediments by centrifugation. The resulting sediments were homogenized under ice cooling in an ice-cold tris buffer (pH 7.4) containing 50 mM tris-HCl, 5 mM MgCl2 and 1 mM EGTA, and then the suspension was centrifuged (48,000×g, 20 minutes, 4° C.) in a super high speed centrifuge. The resulting sediments were homogenized again in an ice-cold tris buffer (pH 7.4) containing 10% sucrose. […]
(§3) In an opioid receptor binding test, [^3H] […] The radioactivity on the glass filter was measured with the Microbeta 2 (PerkinElmer Co., Ltd.), and nonspecific binding was calculated from the difference in binding capacity between in the presence and absence of a nonradioactive ligand (μ: DAMGO, δ: DPDPE, κ: U-69, 593, each 10 μM). The equilibrium inhibition constant (Ki value) obtained by the opioid receptor binding test was calculated by applying an IC50 value obtained from the inverse S-shaped curve in the test to the Cheng and Prusoff equation (Ki=IC50/(I+L/Kd)) using GraphPad Prism 6 (GraphPad Software, Inc., CA, USA). […]

δ opioid receptor = δ opioid receptor (Homo sapiens (Human), UniProt P41143); assay: Opioid receptor binding test, [3H] DPDPE; conditions: ratio of Ki values δ/κ
Description: as §1, §2, §3

κ opioid receptor = κ opioid receptor (Homo sapiens (Human), UniProt P41145); assay: Opioid receptor binding test, [3H] U-69,593; conditions: read-out: Binding affinity (Ki, pM) κ; CHO cell membrane, [3H] U-69,593 2 nM
Description: as §1, §2, §3

Structure (SMILES)	κ-receptor selectivity (Ki value ratio) μ/κ (μ opioid receptor)	κ-receptor selectivity (Ki value ratio) δ/κ (δ opioid receptor)	Ki (κ opioid receptor) [pM]
CN(Cc1ccccc1)C(=O)C1=C[C@@]23CC[C@]1(O)[C@@H]1Oc4c(O)ccc5c4[C@@]12CCN(CC1CC1)[C@@H]3C5.Cl	8.11	5.78	–
CN(Cc1ccccc1)C(=O)C1=C[C@@]23CC[C@]1(O)[C@@H]1Oc4c(O)ccc5c4[C@@]12CCN(CC1CC1)[C@@H]3C5	–	–	2.06
